In ChEMBL document CHEMBL4196194, “De Novo Design of α-Helical Lipopeptides Targeting Viral Fusion Proteins: A Promising Strategy for Relatively Broad-Spectrum Antiviral Drug Discovery” (J Med Chem, 2018):

System: Lipid bilayer
Test: Binding affinity to POPC LUV liposome system at 15 uM
Method in brief: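 Isothermal titration calorimetry at 25 °C. POPC large unilamellar vesicles (13 mM in the syringe) were titrated into peptide in the cell (15 μM) over 20 injections, 120 s apart, with stirring at 750 rpm. The binding constant was derived from the heat released during peptide–lipid binding.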

In the case of `CCCCCCCCCCCCCCCC(=O)NCCCC[C@H](NC(=O)CCNC(=O)[C@H](CCCCN)NC(=O)[C@H](CCCCN)NC(=O)[C@H](CCC(N)=O)NC(=O)[C@@H](NC(=O)[C@H](CCC(=O)O)NC(=O)[C@H](CCC(=O)O)NC(=O)[C@@H](NC(=O)[C@H](CCCCN)NC(=O)[C@H](CCCCN)NC(=O)[C@H](CCC(N)=O)NC(=O)[C@@H](NC(=O)[C@H](CCC(=O)O)NC(=O)[C@H](CCC(=O)O)NC(=O)[C@@H](NC(=O)[C@H](CCCCN)NC(=O)[C@H](CCCCN)NC(=O)[C@H](CCC(N)=O)NC(=O)[C@@H](NC(=O)[C@H](CCC(=O)O)NC(=O)[C@H](CCC(=O)O)NC(=O)[C@@H](NC(=O)[C@H](CCCCN)NC(=O)[C@H](CCCCN)NC(=O)[C@H](CCC(N)=O)NC(=O)[C@@H](NC(=O)[C@H](CCC(=O)O)NC(=O)[C@H](CCC(=O)O)NC(=O)[C@@H](NC(=O)[C@H](CCCCN)NC(=O)[C@H](CCCCN)NC(=O)[C@H](CCC(N)=O)NC(=O)[C@@H](NC(=O)[C@H](CCC(=O)O)NC(=O)[C@H](CCC(=O)O)NC(=O)[C@@H](NC(C)=O)[C@@H](C)CC)[C@@H](C)CC)[C@@H](C)CC)[C@@H](C)CC)[C@@H](C)CC)[C@@H](C)CC)[C@@H](C)CC)[C@@H](C)CC)[C@@H](C)CC)[C@@H](C)CC)C(N)=O`, the K was 1.04 ×10⁵ /M.
